Experimental data reported in patent publication US11059801B2.
Like-named read-outs stand apart in the source and are kept apart here.

The chains behind the UniProt entries cited, without tags or fusion partners. Where a name states a change or a piece, a line headed by the entry shows the natural chain unless it says otherwise.
UniProt P62942, whole entry, looked up: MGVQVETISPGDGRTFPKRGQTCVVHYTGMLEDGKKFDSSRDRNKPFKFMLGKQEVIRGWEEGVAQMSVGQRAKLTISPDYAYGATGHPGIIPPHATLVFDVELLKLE

Key:
[1] = target: fusion of FKBP12 to nanoluciferase (Homo sapiens (Human), UniProt P62942+Q96SW2); test: FKBP Dual Luciferase Assay (FKBP12); assay type: cell-based; conditions: 4 hours; for Dmax: read-out: Max Degradation (dual luciferase, %) FKBP
[2] = target: fusion of mutant FKBP12 to nanoluciferase (Homo sapiens (Human), UniProt P62942+Q96SW2, F36V); test: FKBP Dual Luciferase Assay (mutant FKBP12, 36V); assay type: cell-based; conditions: FKBP 36V, 4 hours; for Dmax: read-out: Max Degradation (dual luciferase, %) FKBP 36V;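 as to all read-outs here: cells exposed to rising degrader concentrations, FKBP12 fusion level read as NLuc/FLuc signal ratio, lower ratio means more degradation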
[3] = target: BRD4 adjoined to nanoluciferase (Nluc) (Homo sapiens (Human), UniProt O60885+Q96SW2); test: BRD4 Dual Luciferase Assay
CRBN-DDB1/BRD4 = CRBN-DDB1/BRD4 (Homo sapiens (Human), UniProt O60885+Q96SW2); test: CRBN-DDB1/BRD4 Dimerization Assay;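 also: AlphaScreen proximity signal between GST-tagged BRD4 and CRBN-DDB1 with glutathione donor and nickel chelate acceptor beads, read after 1 hr compound incubation at room temperature, values from Gaussian curve fit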
FKBP12 [4] = target: T1, FKBP12 (Homo sapiens (Human), UniProt P62942); conditions: 18 h
FKBP12 [5] = target: T1, FKBP12; conditions: MV4-11, 18 h
GST-FKBP12 (36V) = GST-FKBP12 (36V) (Homo sapiens (Human), UniProt P62942, F36V); test: FKBP12 Ligand-Displacement AlphaScreen Assay (36V); assay type: binding
[6] = Gaussian fit of dimerization signal

Question: What does the source list for `CC[C@H](C(=O)N1CCCC[C@H]1C(=O)O[C@H](CCc1ccc(OC)c(OC)c1)c1cccc(OCC(=O)NCCCCNC(=O)COc2cccc3c2C(=O)N(C2CCC(=O)NC2=O)C3=O)c1)c1cc(OC)c(OC)c(OC)c1` (some centres unmarked) [c1FKBP*-6]?
Answer: Dmax [1]: < 5%; Dmax [2]: 72%

Question: With `COC(=O)C[C@@H]1N=C(c2ccc(Cl)cc2)c2c(sc(C(=O)NCCCCNC(=O)COc3cccc4c3C(=O)N(C3CCC(=O)NC3=O)C4=O)c2C)-n2c(C)nnc21` (some centres unmarked) [dBET22] as the molecule, how does the “Conc@Emax” value [3] read?
Answer: 50 µM

Question: And the “Dimer Amplitude” value (CRBN-DDB1/BRD4; [6])?
Answer: 26153

Question: And the “Dimer Mean” value (CRBN-DDB1/BRD4; [6])?
Answer: −7.636

Question: What about the “Dimer SD” value (CRBN-DDB1/BRD4; Gaussian fit parameter of dimerization signal) of the same molecule?
Answer: 0.9644

Question: Which results are given for `CC[C@H](C(=O)N1CCCC[C@H]1C(=O)O[C@H](CCc1ccc(OC)c(OC)c1)c1cccc(OCC(=O)NCCCOCCOCCOCCCNC(=O)COc2cccc3c2C(=O)N(C2CCC(=O)NC2=O)C3=O)c1)c1cc(OC)c(OC)c(OC)c1` (some centres unmarked) [c1FKBP*-7]?
Answer: Dmax [1]: < 5%; Dmax [2]: 75%

Question: Which results are given for `CCC(C)(C)C(=O)C(=O)N1CCCC[C@H]1C(=O)O[C@H](CCc1ccc(OC)c(OC)c1)c1cccc(NC(=O)CCC(=O)NCCCCNC(=O)COc2cccc3c2C(=O)N(C2CCC(=O)NC2=O)C3=O)c1` (some centres unmarked) [dFKBP-1]?
Answer: FKBP12 degradation in 293FT-CRBN−/− cells (FKBP12 [4]; 293FT-CRBN−/−): unaffected; FKBP12 degradation in 293FT-WT cells (FKBP12 [4]; 293FT-WT): potent, dose-dependent degradation of FKBP12; reduction of FKBP12 (FKBP12 [5]; 0.01 μM): 50%; reduction of FKBP12 (FKBP12 [5]; 0.1 μM): over 80%; Dmax [2]: 35%

Question: Which “reduction of FKBP12” value (FKBP12 [5]; 0.01 μM) does the source give for `CCC(C)(C)C(=O)C(=O)N1CCCC[C@H]1C(=O)O[C@H](CCc1ccc(OC)c(OC)c1)c1cccc(NC(=O)CCC(=O)NCCCOCCOCCOCCCNC(=O)COc2cccc3c2C(=O)N(C2CCC(=O)NC2=O)C3=O)c1` (some centres unmarked) here?
Answer: 50%

Question: What about the “reduction of FKBP12” value (FKBP12 [5]; 0.1 μM) of the same molecule?
Answer: over 80%

Question: And the DC50 [1]?
Answer: 26 nM

Question: What about the DC50 [2] of the same molecule?
Answer: 19 nM

Question: And the Dmax [2]?
Answer: 43%

Question: What about the IC50 (GST-FKBP12 (36V)) of the same molecule?
Answer: 174 nM

Question: Which “pDC50 (dual luc)” value [3] does the source give for `Cc1sc2c(c1C)C(c1ccc(Cl)cc1)=N[C@@H](CC(=O)NCCCCNC(=O)CNc1cccc3c1CN(C1CCC(=O)NC1=O)C3=O)c1nnc(C)n1-2` (some centres unmarked) [dBET35] here?
Answer: 5.576

Question: And the DC50 ([3]; read-out: BRD4 DC50 (nM) Dual Luciferase)?
Answer: 2660 nM

Question: With `CC[C@H](C(=O)N1CCCC[C@H]1C(=O)O[C@H](CCc1ccc(OC)c(OC)c1)c1cccc(OCC(=O)NCCCCCCCCNC(=O)COc2cccc3c2C(=O)N(C2CCC(=O)NC2=O)C3=O)c1)c1cc(OC)c(OC)c(OC)c1` (some centres unmarked) [c1FKBP*-9] as the molecule, how does the Dmax [1] read?
Answer: < 5%

Question: What about the Dmax [2] of the same molecule?
Answer: 65%
